Marks after values point to notes of the source that are not given here.
System: RAW264.7 cells
Test: Cell viability assay (MTT) in RAW264.7 cells
Format: cell-based, mouse
Conditions: 6.25-100 μg/mL, 24 h, LPS 100 ng/mL, mean ± SD of three independent experiments
Procedure: RAW264.7 the mouse macrophages cell line (Bioresource Collection and Research Center (BCRC) Number: 60001) was obtained from Food Industry Research and Development Institute (Hsinchu, Taiwan). All of the cell lines were cultured in DMEM containing 10% (v:v) fetal bovine serum (FBS), penicillin and streptomycin (100 U/mL), 4 mM L-glutamine (100 U/mL). The cells were cultured in a humidified incubator under 5% CO2 at 37 °C. The RAW264.7 cells (5 × 10^5 cells per mL) were seeded into plates for 24 h before treatment.
The in-vitro cell viability activity of MeOH extracts, partition fractions and pure compounds were determined by the MTT assay. RAW264.7 cells (5 × 10^4/well) were seeded in 96-well plates and incubated for 24 h. The cells were treated with MeOH extracts and contain partition fractions in various concentrations (0, 62.5, 125, 250, 500 and 1000 μg/mL), compounds and positive control (0, 6.25, 12.5, 25, 50 and 100 μg/mL) in the presence or absence of LPS (100 ng/mL) for 24 h. After 24 h, the medium was replaced with a medium containing 0.5 mg/mL MTT solution and incubated at 37 °C for 4 h. After the end of the MTT reaction, we used 0.04 N HCl /isopropanol solution to dissolve the formazan crystals. The absorbance was measured at 570 nm using a microplate reader (Molecular Devices, LLC.). The cell viability was calculated and compared with the control group.

(+)-pinoresinol [Compound 11]
CC50: >100 ^b μg/mL

— article PMC6930649, “Four New Iridoid Metabolites Have Been Isolated from the Stems of Neonauclea reticulata (Havil.) Merr. with Anti-Inflammatory Activities on LPS-Induced RAW264.7 Cells” (Molecules, 2019)
